Experimental data taken from US8828966B2, “Method for treatment of macular degeneration by modulating P2Y12 or P2X7 receptors” (priority 2006, dated 2014).

What was measured:
ARPE-19 cells = test: Clearance (degradation) of calcein-labeled photoreceptor outer segments; type: cell-based, human; conditions: after 24 hrs
Method: Outer Segment Degradation: Bovine retinas were homogenized in 20% sucrose with 130 mM NaCl, 20 mM Tris-HCl, 10 mM glucose, 5 mM taurine and 2 mM MgC12 (pH 7.20). The homogenate was placed in ultracentrifuge tubes with 20%, 27%, 33%, 41%, 50% and 60% sucrose, respectively, and centrifuged for 70 minutes at 28,000 rpm on a SW28 rotor (4° C.). The supernatant was filtered, diluted in 0.02M Tris-HCl buffer (pH 7.2) and centrifuged at 13,000×g for 10 minutes (4° C.). The pellet was resuspended in […], 0.1 mM NaCl and 2.5% sucrose. Outer segments were loaded with 5 μM calcein-AM in PBS for 10 minutes, and spun 2× at 14,000 rpm to wash. Outer segments were then diluted 1:100 in growth medium and added to ARPE-19 cells in 96-well plates. After 2 hours, cells were washed vigorously 3×, and incubated with growth medium for 3 hours, after which 30 μM tamoxifen was added with acidifying drugs. After 24 hours, wells were washed 3×, and the fluorescence was read with a plate scanner at 485 nm to quantify the signal.
Isolated bovine outer segments loaded with calcein were supplied to ARPE-19 cells in 96-well plates for 2 hrs, washed 3× and maintained in control medium for an additional 3 hr (see Methods). […] Drugs were given to cells both with, and without, tamoxifen to determine whether baseline levels of degradation were also altered. […]

A2B receptor = biological target: T1, A2B receptor (Homo sapiens, UniProt P29275); conditions: read-out: IC50 for the A2B receptor; antagonist; cited from earlier work
T1 sequence (P29275 1-332): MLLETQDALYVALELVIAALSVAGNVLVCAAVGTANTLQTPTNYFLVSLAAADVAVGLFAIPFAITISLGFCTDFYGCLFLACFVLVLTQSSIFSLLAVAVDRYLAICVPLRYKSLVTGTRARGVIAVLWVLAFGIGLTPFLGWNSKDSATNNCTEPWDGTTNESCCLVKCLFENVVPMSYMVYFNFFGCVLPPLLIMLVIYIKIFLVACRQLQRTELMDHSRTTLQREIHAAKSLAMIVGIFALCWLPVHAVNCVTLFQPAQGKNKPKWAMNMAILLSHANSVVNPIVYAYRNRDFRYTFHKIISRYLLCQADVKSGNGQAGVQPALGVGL

| Compound | clearance of calcein-labeled outer segments, alkalinizing agent alone (ARPE-19 cells) | IC50 (A2B receptor) [nM] |
| --- | --- | --- |
| CCN(CC)CCCC(C)Nc1ccnc2cc(Cl)ccc12 (centres unmarked) [chloroquine] | slowed clearance of outer segments | – |
| CCCn1c(=O)c2[nH]c(-c3ccc(OCC(=O)Nc4ccc(C#N)cc4)cc3)nc2n(CCC)c1=O [MRS1754] | – | 2 |
